Laboratory results taken from paper PMC4685510, “A Cell Biologist’s Field Guide to Aurora Kinase Inhibitors” (Frontiers in Oncology, 2015).

How the values were obtained:
Aurora A [1] = target: T1, Aurora A (Homo sapiens, UniProt O14965); parameters: purified full-length human Aurora A (Millipore); purchased Millipore; conditions: previously reported; read-out: Kd of TPX2^1–43; cited from earlier work
T1 sequence (O14965 1-403): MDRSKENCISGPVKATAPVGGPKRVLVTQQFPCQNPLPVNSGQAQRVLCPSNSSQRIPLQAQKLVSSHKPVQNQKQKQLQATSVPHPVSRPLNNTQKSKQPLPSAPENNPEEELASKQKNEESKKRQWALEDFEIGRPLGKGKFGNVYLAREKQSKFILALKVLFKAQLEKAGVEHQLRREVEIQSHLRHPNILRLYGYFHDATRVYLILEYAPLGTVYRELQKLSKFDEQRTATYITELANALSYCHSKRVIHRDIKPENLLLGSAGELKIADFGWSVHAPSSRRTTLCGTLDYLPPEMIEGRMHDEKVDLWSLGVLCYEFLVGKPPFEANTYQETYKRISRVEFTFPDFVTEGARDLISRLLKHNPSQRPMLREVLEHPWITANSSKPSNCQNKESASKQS

Aurora A [2] = target: T1, Aurora A; test: Activation of Aurora A by TPX2^1–43 under kinase reaction conditions; conditions: read-out: Concentration required to achieve half-maximal activation of Aurora A; kinase reaction conditions of the Aurora A/TPX2^1–43 assay

- EC50 (Aurora A [2]): 3 nM
SMILES: CC[C@H](C)[C@H](NC(=O)[C@H](Cc1ccccc1)NC(=O)[C@H](CC(=O)O)NC(=O)[C@H](CO)NC(=O)[C@@H]1CCCN1C(=O)[C@H](C)NC(=O)[C@H](CC(=O)O)NC(=O)[C@H](Cc1ccc(O)cc1)NC(=O)[C@H](CO)NC(=O)[C@H](Cc1ccc(O)cc1)NC(=O)[C@H](CO)NC(=O)[C@H](CO)NC(=O)[C@H](CCCCN)NC(=O)[C@@H](NC(=O)[C@H](CCC(N)=O)NC(=O)[C@H](CO)NC(=O)[C@@H](N)CCSC)C(C)C)C(=O)N[C@@H](CC(N)=O)C(=O)N[C@@H](Cc1ccccc1)C(=O)N[C@@H](CO)C(=O)N[C@@H](CO)C(=O)N[C@@H](CC(C)C)C(=O)N[C@@H](CC(=O)O)C(=O)N[C@@H](CC(=O)O)C(=O)N[C@@H](CCC(=O)O)C(=O)NCC(=O)N[C@@H](CC(=O)O)C(=O)N[C@H](C(=O)N[C@@H](CCC(N)=O)C(=O)N[C@@H](CC(N)=O)C(=O)N[C@H](C(=O)N[C@@H](CC(=O)O)C(=O)N[C@@H](CO)C(=O)N[C@@H](Cc1c[nH]c2ccccc12)C(=O)N[C@@H](Cc1ccccc1)C(=O)N[C@@H](CCC(=O)O)C(=O)N[C@@H](CCC(=O)O)C(=O)N[C@@H](CCCCN)C(=O)N[C@@H](C)C(=O)N[C@@H](CC(N)=O)C(=O)N[C@@H](CC(C)C)C(=O)N[C@@H](CCC(=O)O)C(=O)N[C@@H](CC(N)=O)C(=O)O)[C@@H](C)CC)[C@@H](C)O [TPX2^1–43]
- Kd (Aurora A [1]): 2.3 nM
